# Laboratory results taken from patent US5952008A, “Processes for preparing compositions for inhalation” (AB Astra, priority 1993, dated 1999).
# Tested on: CaCo-2 epithelial cell monolayer
# Assay: In vitro CaCo-2 epithelial cell monolayer transport assay
# Format: in vitro ADME
# Conditions: 16 mM sodium caprate
# Experimental: A standard in vitro assay utilizing an epithelial cell line, CaCo-2 (available through the American Type Culture Collection (ATCC), Rockville, Md., USA), has been developed to assess the ability of various enhancer compounds to promote transport of markers across an epithelial cell monolayer, as a model for the epithelial cell layer which functions in the lung to separate the alveolus from the pulmonary blood supply.
# In this assay, the enhancer and polypeptide or other marker are dissolved in aqueous solution at various proportions and/or concentrations, and applied to the apical side of the cell monolayer. After 60 min incubation at 37° C. and 95% RH (relative humidity), the amount of the marker on the basolateral side of the cells is determined, e.g., by use of a radioactively labelled marker.
substance,measurement,value
insulin,"Amount of polypeptide passed across the monolayer compared to absence of enhancer, in words",doubled
